Measured values taken from patent US20090053168A1, “TREATMENTS OF B-CELL PROLIFERATIVE DISORDERS” (priority 2007, published 2009).

Columns and labels:
MM.1S cells = test: Anti-proliferation assay (ATPLite, 72 h), MM.1S
RPMI-8226 cells = test: Anti-proliferation assay (ATPLite, 72 h), RPMI-8226; format: cell-based
H929 cells = test: Anti-proliferation assay (ATPLite, 72 h), H929; format: cell-based

Row | Structure (SMILES) | synergy score (MM.1S cells; in combination with ADAC, MM.1S) | Synergy score with dexamethasone, RPMI-8226 (RPMI-8226 cells) | Synergy score with dexamethasone, H929 (H929 cells) | Synergy score with dexamethasone, MM.1S (MM.1S cells)
1 | COc1cccc2c1C(=O)c1c(O)c3c(c(O)c1C2=O)C[C@@](O)(C(=O)CO)C[C@@H]3O[C@H]1C[C@H](N)[C@@H](O)[C@H](C)O1 [Epirubicin] | 1.48 |  |  | 
2 | COc1ccc([C@@H]2CNC(=O)C2)cc1OC1CCCC1 [R-(−)-Rolipram] |  | 1.72 | 0.545 | 0.371
